Protein sequences, listed by entry. Tags and fused reporters are not part of them. Residues count along the entry.
UniProt P08581, 956-1390 limits assumed: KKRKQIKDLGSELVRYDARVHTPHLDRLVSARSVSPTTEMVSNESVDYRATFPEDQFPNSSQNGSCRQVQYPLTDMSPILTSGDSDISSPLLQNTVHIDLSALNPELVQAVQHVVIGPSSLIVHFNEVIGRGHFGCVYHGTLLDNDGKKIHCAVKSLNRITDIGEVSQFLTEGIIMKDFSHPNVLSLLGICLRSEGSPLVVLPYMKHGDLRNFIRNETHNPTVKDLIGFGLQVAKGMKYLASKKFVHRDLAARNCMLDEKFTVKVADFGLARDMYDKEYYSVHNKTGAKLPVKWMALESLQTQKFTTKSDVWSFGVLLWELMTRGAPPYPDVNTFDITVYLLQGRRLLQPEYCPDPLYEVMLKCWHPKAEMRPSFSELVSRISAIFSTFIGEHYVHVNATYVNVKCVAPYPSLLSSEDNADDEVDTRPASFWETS

In patent publication US8304427B2, “Acylthiourea compound or salt thereof, and use thereof” (Taiho Pharmaceutical Co., Ltd., priority 2008, dated 2012):

Target: c-Met (Homo sapiens, UniProt P08581)
Assay: c-Met inhibitory assay using AlphaScreen (Method A)
Settings: read-out: c-Met IC50, ATP 20 μM

IC50: 107 nM
Structure (SMILES): COc1cc2nccc(Oc3ccc(NC(=S)NC(=O)Cc4ccccc4)cc3F)c2cc1C(=O)NCC(=O)N1CC[C@H](F)C1
